# Apparent affinities of Ab-91 variants for a coronavirus HR2 peptide

Reference: Engelhart et al. 2022, doi:10.1038/s41597-022-01779-4. File: FLAb, binding data.

The target is the same throughout: PDVDLGDISGINAS, from the HR2 region of SARS-CoV-2 spike.

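The parent was found by panning a naive human phage display library on the peptide. AAYL51 was designed without a model: most single CDR substitutions and a random sample of double and triple ones. Affinity was read by AlphaSeq, a pooled yeast mating assay with surface-displayed partners. Mating (16 h, 30 °C) was followed by selection of diploids and sequencing of their barcodes. Scores were corrected for input abundance and mapped to Kd with protein pairs of known affinity run in the same pool. There are three technical replicates.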

Each scFv is VL, three GGGGS repeats, VH, as in the parent Ab-91, and differs from it in the CDRs of the heavy chain only.
VL: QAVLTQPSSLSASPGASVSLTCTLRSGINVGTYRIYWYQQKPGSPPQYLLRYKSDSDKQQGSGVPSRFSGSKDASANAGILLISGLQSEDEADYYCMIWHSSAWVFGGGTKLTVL
VH: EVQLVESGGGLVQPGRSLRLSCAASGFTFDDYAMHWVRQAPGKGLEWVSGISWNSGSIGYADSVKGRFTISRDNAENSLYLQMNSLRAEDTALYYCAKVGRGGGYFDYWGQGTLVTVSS

Substitutions are numbered in sequence along the VH above, starting at 1 (not Kabat). Numbers give log10(Kd / nM), so 0 is 1 nM and 3 is 1 µM. Smaller is tighter. The mean shown is taken over the replicates in which the pair was detected. Where no diploid with the target was found in any replicate, the entry reads "nd": below detection, most likely a poor binder, though not proof of it.

{"changes": "S52N W53N", "mean, log10 nM": "3.74", "detected": "1 of 3", "control signals": "0 of 9"}
{"changes": "A33D H35E G103L", "mean, log10 nM": "5.74", "detected": "3 of 3", "control signals": "5 of 9"}
{"changes": "A61T S63R G102C", "mean, log10 nM": "nd", "detected": "0 of 3", "control signals": "0 of 9"}
{"changes": "D31F G56C S63T", "mean, log10 nM": "3.25", "detected": "2 of 3", "control signals": "0 of 9"}
{"changes": "F27T D30I Y105P", "mean, log10 nM": "5.29", "detected": "2 of 3", "control signals": "1 of 9"}
{"changes": "D31E H35Q V64C", "mean, log10 nM": "nd", "detected": "0 of 3", "control signals": "1 of 9"}
{"changes": "F29W G104P D107G", "mean, log10 nM": "5.81", "detected": "1 of 3", "control signals": "1 of 9"}
{"changes": "M34I S55E R101P", "mean, log10 nM": "nd", "detected": "0 of 3", "control signals": "4 of 9"}
{"changes": "A33V Y60R D107M", "mean, log10 nM": "nd", "detected": "0 of 3", "control signals": "0 of 9"}
{"changes": "T28E W53L G100A", "mean, log10 nM": "4.50", "detected": "1 of 3", "control signals": "1 of 9"}
{"changes": "F27D G50S W53K", "mean, log10 nM": "nd", "detected": "0 of 3", "control signals": "1 of 9"}
{"changes": "Y32T K65Y", "mean, log10 nM": "1.66", "detected": "3 of 3", "control signals": "2 of 9"}
{"changes": "D31S V64I R101H", "mean, log10 nM": "1.55", "detected": "3 of 3", "control signals": "2 of 9"}
{"changes": "F27T D31Q G100F", "mean, log10 nM": "3.17", "detected": "2 of 3", "control signals": "2 of 9"}
{"changes": "D30W D31N N54T", "mean, log10 nM": "nd", "detected": "0 of 3", "control signals": "1 of 9"}
{"changes": "S55G R101E", "mean, log10 nM": "4.10", "detected": "1 of 3", "control signals": "1 of 9"}
{"changes": "S52E Y60G", "mean, log10 nM": "3.55", "detected": "1 of 3", "control signals": "1 of 9"}
{"changes": "M34H V99M G102Q", "mean, log10 nM": "nd", "detected": "0 of 3", "control signals": "2 of 9"}
{"changes": "T28W F29D Y105K", "mean, log10 nM": "nd", "detected": "0 of 3", "control signals": "1 of 9"}
{"changes": "M34N G59H S63W", "mean, log10 nM": "nd", "detected": "0 of 3", "control signals": "1 of 9"}
{"changes": "W53C S55M V99S", "mean, log10 nM": "nd", "detected": "0 of 3", "control signals": "0 of 9"}
{"changes": "F27R S52R S63K", "mean, log10 nM": "nd", "detected": "0 of 3", "control signals": "1 of 9"}
{"changes": "S52N N54V R101C", "mean, log10 nM": "nd", "detected": "0 of 3", "control signals": "2 of 9"}
{"changes": "G26D T28A I51C", "mean, log10 nM": "nd", "detected": "0 of 3", "control signals": "0 of 9"}
{"changes": "T28Y N54K G100T", "mean, log10 nM": "4.35", "detected": "3 of 3", "control signals": "3 of 9"}
{"changes": "F27W G103V G104P", "mean, log10 nM": "5.62", "detected": "1 of 3", "control signals": "6 of 9"}
{"changes": "I51F S57K K65A", "mean, log10 nM": "4.58", "detected": "1 of 3", "control signals": "2 of 9"}
{"changes": "D31Q S63Q G104Y", "mean, log10 nM": "nd", "detected": "0 of 3", "control signals": "0 of 9"}
{"changes": "G50T S63P V99Y", "mean, log10 nM": "nd", "detected": "0 of 3", "control signals": "1 of 9"}
{"changes": "S55I I58R V99K", "mean, log10 nM": "nd", "detected": "0 of 3", "control signals": "0 of 9"}
{"changes": "A33Q S55F F106M", "mean, log10 nM": "nd", "detected": "0 of 3", "control signals": "0 of 9"}
{"changes": "W53P N54V K65F", "mean, log10 nM": "1.99", "detected": "3 of 3", "control signals": "0 of 9"}

From the list, the first 5 with no signal in any replicate:

{"changes": "A61T S63R G102C", "mean, log10 nM": "nd", "detected": "0 of 3", "control signals": "0 of 9"}
{"changes": "D31E H35Q V64C", "mean, log10 nM": "nd", "detected": "0 of 3", "control signals": "1 of 9"}
{"changes": "M34I S55E R101P", "mean, log10 nM": "nd", "detected": "0 of 3", "control signals": "4 of 9"}
{"changes": "A33V Y60R D107M", "mean, log10 nM": "nd", "detected": "0 of 3", "control signals": "0 of 9"}
{"changes": "F27D G50S W53K", "mean, log10 nM": "nd", "detected": "0 of 3", "control signals": "1 of 9"}

In this assay the parent's reference entry averaged 1.86; its copy inside this library read 0.88. As a blank, each scFv also met three strains without target: over library AAYL51, 21% of these pairings were detected, typically at 4.54 and seldom below 3.26. Also given: how often the same scFv was detected with the empty control strains.